Test results: patent US20090286252A1 (NEW YORK UNIVERSITY, published 2009)

T1: LexA alone (UniProt P0A7C2 1-202)
T1 construct: Negative control bait; also called bait LexA alone (negative control)
T1 sequence (looked up): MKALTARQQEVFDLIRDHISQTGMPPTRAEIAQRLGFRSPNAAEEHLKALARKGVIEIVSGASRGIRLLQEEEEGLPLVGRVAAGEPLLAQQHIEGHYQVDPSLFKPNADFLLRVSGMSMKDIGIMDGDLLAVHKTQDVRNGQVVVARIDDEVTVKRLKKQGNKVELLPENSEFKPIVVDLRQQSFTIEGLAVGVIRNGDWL

T2: LexA-hRARα LBD (human, UniProt P0A7C2 1-202; P10276 154-462, limits assumed)
T2 construct: also called LexA-RAR
T2 sequence (looked up): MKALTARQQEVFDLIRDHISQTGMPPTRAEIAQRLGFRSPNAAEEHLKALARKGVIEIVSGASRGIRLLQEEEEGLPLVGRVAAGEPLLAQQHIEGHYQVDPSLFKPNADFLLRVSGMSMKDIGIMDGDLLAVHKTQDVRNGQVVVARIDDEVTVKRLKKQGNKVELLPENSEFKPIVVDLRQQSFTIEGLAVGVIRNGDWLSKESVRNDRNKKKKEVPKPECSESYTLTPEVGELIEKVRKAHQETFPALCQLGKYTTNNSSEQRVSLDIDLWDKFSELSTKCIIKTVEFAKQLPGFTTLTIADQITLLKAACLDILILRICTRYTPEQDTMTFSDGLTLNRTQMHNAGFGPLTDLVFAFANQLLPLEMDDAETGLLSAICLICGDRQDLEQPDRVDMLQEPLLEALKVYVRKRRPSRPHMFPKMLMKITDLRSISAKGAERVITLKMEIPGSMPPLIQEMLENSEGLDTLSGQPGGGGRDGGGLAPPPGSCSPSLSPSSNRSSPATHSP

T3: LexA-hGR LBD (human, UniProt P0A7C2 1-202; P04150 485-777, limits assumed)
T3 construct: also called LexA-GR
T3 sequence (looked up): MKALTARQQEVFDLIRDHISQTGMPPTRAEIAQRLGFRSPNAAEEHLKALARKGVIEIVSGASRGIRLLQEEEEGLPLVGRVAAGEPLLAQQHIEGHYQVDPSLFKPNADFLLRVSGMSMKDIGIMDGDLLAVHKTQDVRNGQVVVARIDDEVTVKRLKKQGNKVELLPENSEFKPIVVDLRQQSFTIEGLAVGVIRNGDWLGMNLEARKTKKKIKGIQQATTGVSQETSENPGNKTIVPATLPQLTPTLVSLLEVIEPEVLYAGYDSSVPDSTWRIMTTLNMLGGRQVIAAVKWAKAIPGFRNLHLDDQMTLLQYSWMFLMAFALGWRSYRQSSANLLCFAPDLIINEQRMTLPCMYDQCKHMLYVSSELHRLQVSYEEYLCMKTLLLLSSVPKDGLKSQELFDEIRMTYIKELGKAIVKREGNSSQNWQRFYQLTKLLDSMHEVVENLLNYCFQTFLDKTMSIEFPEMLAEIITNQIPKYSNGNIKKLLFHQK

T4: LexA-hRXRα LBD (human, UniProt P0A7C2 1-202; P19793 198-462, limits assumed)
T4 sequence (looked up): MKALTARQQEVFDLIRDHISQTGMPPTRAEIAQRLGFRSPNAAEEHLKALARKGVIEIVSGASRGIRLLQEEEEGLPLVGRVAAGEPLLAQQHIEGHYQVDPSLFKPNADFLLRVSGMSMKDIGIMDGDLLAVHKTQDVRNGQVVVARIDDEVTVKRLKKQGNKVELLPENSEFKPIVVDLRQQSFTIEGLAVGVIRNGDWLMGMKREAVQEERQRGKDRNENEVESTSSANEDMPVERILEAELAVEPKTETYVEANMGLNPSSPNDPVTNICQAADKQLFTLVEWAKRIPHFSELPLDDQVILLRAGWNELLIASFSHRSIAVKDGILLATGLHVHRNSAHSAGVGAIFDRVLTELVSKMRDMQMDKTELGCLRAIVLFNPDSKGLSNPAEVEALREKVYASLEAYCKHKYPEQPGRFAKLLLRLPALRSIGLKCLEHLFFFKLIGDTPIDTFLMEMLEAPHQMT

T5: LexA-cTRα LBD (chicken, UniProt P0A7C2 1-202; P04625 120-408, limits assumed)
T5 sequence (looked up): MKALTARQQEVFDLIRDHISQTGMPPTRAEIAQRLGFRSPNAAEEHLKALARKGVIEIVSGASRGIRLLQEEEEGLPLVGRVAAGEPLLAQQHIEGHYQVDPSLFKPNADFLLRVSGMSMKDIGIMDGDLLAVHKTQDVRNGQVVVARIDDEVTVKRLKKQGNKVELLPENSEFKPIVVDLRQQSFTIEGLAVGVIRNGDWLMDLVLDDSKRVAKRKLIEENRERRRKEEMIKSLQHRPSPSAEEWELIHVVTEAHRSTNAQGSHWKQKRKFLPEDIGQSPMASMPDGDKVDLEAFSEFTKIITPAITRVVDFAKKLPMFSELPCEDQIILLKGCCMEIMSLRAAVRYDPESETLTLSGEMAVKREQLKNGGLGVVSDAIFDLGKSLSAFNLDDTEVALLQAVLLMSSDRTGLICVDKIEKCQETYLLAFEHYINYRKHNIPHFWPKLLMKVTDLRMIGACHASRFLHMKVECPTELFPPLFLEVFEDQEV

T6: full length cTRα (chicken, UniProt P04625 1-408, ^35S-labeled in the in vitro binding assay)
T6 construct: domain: full length; In vitro transcribed/translated in reticulocyte lysate for the GST assay; expressed from a vector in HeLa cells for the transfection studies
T6 sequence (looked up): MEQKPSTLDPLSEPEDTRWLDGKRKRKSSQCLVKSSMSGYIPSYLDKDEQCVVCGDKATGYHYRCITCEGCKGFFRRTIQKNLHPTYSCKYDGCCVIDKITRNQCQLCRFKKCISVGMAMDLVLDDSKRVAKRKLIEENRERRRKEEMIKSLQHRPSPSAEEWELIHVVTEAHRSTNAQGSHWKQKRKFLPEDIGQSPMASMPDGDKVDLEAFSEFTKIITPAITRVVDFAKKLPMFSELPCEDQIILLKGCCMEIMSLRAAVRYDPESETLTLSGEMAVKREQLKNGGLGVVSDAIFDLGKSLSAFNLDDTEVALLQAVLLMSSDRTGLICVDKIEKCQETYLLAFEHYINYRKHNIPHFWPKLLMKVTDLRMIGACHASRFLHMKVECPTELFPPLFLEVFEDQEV

T7: full length hRXRα (human, UniProt P19793 1-462, ^35S-labeled in the in vitro binding assay)
T7 construct: domain: full length; In vitro transcribed/translated for the GST assay; expressed from a vector in HeLa cells for the transfection studies
T7 sequence (looked up): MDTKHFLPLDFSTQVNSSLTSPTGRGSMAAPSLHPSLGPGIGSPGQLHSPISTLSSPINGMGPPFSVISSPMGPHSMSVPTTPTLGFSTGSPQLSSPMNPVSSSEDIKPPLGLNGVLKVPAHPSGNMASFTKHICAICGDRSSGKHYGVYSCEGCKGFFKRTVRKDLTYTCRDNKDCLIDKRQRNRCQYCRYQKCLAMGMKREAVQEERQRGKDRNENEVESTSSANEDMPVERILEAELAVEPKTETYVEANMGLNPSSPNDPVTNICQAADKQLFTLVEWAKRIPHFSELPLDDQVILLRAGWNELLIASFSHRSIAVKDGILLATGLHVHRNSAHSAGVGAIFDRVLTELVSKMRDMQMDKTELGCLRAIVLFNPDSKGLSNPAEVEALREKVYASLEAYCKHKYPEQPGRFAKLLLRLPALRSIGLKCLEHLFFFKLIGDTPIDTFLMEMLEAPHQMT

B1: NRIF3 fused to the B42 activation domain (other, not shown: large carriers)
chain: MPVKRSLKLDGLLEENSFDPSKITRKKSVITYSPTTGTCQMSLFASPTSSEEQKHRNGLSNEKRKKLNHPSLTESKESTTKDNDEFMMLLSKVEKLSEEIMEIMQNLSSIQALEGSRELENLIGISCASHFLKREMQKTKELMTKVNKQKLFEKSTGLPHKASRHLDSYEFLKAILN
notes: Yeast two-hybrid prey; B42 is placed first as for the other pJG4-5 preys printed 'B42-...'; also called NRIF3-B42; wild type NRIF3 (WT)
B2: GST-NRIF3 fusion protein (other)
chain: B1 chain
notes: not shown: glutathione S-transferase (GST) of vector pGEX2T (Pharmacia)

Tests used:
LexA alone [1] = target: T1, LexA alone; experiment: yeast two-hybrid, β-galactosidase (FIG. 1)
Procedure: (§1) The following receptor baits were used: LexA-cTRα LBD, LexA-hTRβ LBD, LexA-hRARα LBD, LexA-hRXRα LBD, and LexA-hGR LBD. […] Yeast cells harboring appropriate plasmids were grown in selective media with Gal/Raf in the presence or absence of cognate ligand (1 μM T3 for TR, all trans or 9-cis RA for RAR, 9-cis RA for RXR, and 10 μM deoxycorticosterone for GR) overnight before β-galactosidase activity was assayed using o-Nitrophenyl β-D-Galactopyranoside as the substrate. β-galactosidase units are expressed as (O.D. 420 nm×1000)/(minutes of incubation×O.D. 600 nm of yeast suspension).

LexA-hRARα LBD [2] = target: T2, LexA-hRARα LBD; experiment: yeast two-hybrid, β-galactosidase (Table 1)
Procedure: as §1

LexA-hGR LBD [3] = target: T3, LexA-hGR LBD; experiment: yeast two-hybrid, β-galactosidase (Table 1)
Procedure: as §1

LexA alone [4] = target: T1, LexA alone; experiment: cell-based or functional assay
LexA-hRXRα LBD = target: T4, LexA-hRXRα LBD; experiment: cell-based or functional assay
LexA-cTRα LBD = target: T5, LexA-cTRα LBD; experiment: cell-based or functional assay
LexA-hRARα LBD [5] = target: T2, LexA-hRARα LBD; experiment: cell-based or functional assay
LexA-hGR LBD [6] = target: T3, LexA-hGR LBD; experiment: cell-based or functional assay
full length cTRα = target: T6, full length cTRα; experiment: in vitro GST binding assay, ^35S-labeled receptor, autoradiography; poor interaction without T3 (FIG. 4)
full length hRXRα = target: T7, full length hRXRα; experiment: in vitro GST binding assay, ^35S-labeled receptor, autoradiography (FIG. 4)

Binder | binding result (LexA alone [1]) | binding result (LexA-hRARα LBD [2]) | binding result (LexA-hGR LBD [3]) | Fold Stimulation of β-galactosidase activity by ligand (LexA alone [4]) | Fold Stimulation of β-galactosidase activity by ligand (9-cis RA) (LexA-hRXRα LBD) | β-galactosidase activity, ligand - (yeast two-hybrid LacZ reporter) (LexA-hRXRα LBD) | Fold Stimulation of β-galactosidase activity by ligand (T3) (LexA-cTRα LBD) | β-galactosidase activity, ligand - (yeast two-hybrid LacZ reporter) (LexA-cTRα LBD) | Fold Stimulation of β-galactosidase activity by ligand (LexA-hRARα LBD [5]) | β-galactosidase activity, ligand - (yeast two-hybrid LacZ reporter) (LexA-hRARα LBD [5]) | Fold Stimulation of β-galactosidase activity by ligand (LexA-hGR LBD [6]) | β-galactosidase activity, ligand - (yeast two-hybrid LacZ reporter) (LexA-hGR LBD [6]) | binding result (full length cTRα) | binding result (full length hRXRα)
B1 | no binding | no binding | no binding | 0.8 fold | 315 fold | 0.2 β-galactosidase units | 69 fold | 1.8 β-galactosidase units | 1 fold | 0.1 β-galactosidase units | 0.8 fold | 0.8 β-galactosidase units | – | –
B2 | – | – | – | – | – | – | – | – | – | – | – | – | binds | binds
